Laboratory results as given in article PMC12250624, “Anti-Amyloid Aggregation Effects of Gobaishi (Galla chinensis) and Its Active Constituents” (Molecules, 2025).

By UniProt entry, the sequences of proteins in these tests, tags left out. Residues count along the entry.
UniProt P05067, 672-713: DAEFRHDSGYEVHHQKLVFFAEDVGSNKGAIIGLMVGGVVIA

Target: Aβ42 (amyloid-beta) (Homo sapiens, UniProt P05067)
Parameters: gene APP

O=C(OC[C@H]1O[C@@H](OC(=O)c2cc(O)c(O)c(O)c2)[C@H](OC(=O)c2cc(O)c(O)c(O)c2)[C@@H](OC(=O)c2cc(O)c(O)c(O)c2)[C@@H]1OC(=O)c1cc(O)c(O)c(O)c1)c1cc(O)c(O)c(O)c1 [compound 1, pentagalloyl glucose]
ThT fibril aggregation assay and turbidity assay, 30 μM Aβ42, 24 h at 37 °C: This result provides physical evidence that PGG directly inhibits the growth of large, light-scattering Aβ aggregates.
